By UniProt entry, the sequences of proteins in these tests, tags left out. Residues count along the entry.
UniProt P01920, 33-261: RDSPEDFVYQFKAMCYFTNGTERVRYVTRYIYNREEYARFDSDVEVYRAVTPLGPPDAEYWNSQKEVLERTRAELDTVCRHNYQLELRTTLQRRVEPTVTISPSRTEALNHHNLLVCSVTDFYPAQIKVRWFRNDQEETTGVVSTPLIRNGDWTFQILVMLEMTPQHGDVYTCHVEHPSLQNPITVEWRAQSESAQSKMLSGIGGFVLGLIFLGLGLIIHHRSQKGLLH
UniProt P01903, 26-254 partner: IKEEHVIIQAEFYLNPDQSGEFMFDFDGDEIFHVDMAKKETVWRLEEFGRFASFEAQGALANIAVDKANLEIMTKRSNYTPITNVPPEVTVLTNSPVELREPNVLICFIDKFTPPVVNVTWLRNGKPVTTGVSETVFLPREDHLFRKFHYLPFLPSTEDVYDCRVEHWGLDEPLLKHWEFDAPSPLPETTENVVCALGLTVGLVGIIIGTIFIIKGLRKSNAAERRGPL
UniProt P01911, 30-266: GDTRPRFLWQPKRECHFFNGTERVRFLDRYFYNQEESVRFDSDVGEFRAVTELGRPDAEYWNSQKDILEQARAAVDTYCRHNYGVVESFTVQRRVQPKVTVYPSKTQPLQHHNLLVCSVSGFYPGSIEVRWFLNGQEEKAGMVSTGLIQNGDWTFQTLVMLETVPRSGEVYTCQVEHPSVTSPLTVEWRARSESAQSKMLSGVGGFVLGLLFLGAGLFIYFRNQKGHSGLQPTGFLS
UniProt Q30154, 30-266: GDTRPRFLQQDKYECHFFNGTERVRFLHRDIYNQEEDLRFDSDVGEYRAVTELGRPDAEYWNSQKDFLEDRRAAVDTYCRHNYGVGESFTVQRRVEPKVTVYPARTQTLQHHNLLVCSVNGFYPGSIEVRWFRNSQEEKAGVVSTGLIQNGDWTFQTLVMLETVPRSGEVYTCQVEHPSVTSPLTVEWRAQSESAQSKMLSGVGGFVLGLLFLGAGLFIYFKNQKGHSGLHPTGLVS
UniProt P79483, 30-266: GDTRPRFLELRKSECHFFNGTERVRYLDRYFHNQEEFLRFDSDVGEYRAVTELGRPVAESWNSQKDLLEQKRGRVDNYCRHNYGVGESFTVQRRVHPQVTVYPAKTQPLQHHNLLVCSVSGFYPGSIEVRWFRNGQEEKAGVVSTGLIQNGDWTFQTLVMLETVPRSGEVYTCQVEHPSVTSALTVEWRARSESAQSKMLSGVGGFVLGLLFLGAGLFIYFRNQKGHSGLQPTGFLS

In article PMC8445433, “Broadly directed SARS-CoV-2-specific CD4+ T cell response includes frequently detected peptide specificities within the membrane and nucleoprotein in patients with acute and resolved COVID-19” (PLoS Pathogens, 2021):

Columns and labels:
Test in all cases: biochemical
DQA1*05:01 DQB1*03:0 = DQA1*05:01 DQB1*03:0 (Homo sapiens, UniProt P01909+P01920)
DRB1*15:01 = DRB1*15:01 (Homo sapiens, UniProt P01903+P01911); type: binding
DPA1*01:03 DPB1*04:01 = biological target: T1, DPA1*01:03 DPB1*04:01 (Homo sapiens, UniProt P04440+P20036); type: binding
T1 sequence (P20036 29-260): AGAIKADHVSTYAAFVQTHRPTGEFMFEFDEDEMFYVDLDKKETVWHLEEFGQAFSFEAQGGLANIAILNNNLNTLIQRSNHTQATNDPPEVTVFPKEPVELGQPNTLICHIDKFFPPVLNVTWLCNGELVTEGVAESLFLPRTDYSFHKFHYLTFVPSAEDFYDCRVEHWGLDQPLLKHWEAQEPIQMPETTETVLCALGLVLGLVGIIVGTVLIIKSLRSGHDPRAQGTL
T1 sequence (P04440 30-258): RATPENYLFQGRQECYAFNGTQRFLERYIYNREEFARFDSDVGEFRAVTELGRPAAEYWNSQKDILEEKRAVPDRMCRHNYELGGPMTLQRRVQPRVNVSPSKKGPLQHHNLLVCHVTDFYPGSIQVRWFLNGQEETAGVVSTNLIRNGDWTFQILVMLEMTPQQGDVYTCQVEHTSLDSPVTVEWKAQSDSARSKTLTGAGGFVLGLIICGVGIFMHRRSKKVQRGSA

DRB5*01:01 = DRB5*01:01 (Homo sapiens, UniProt P01903+Q30154); type: binding
DRB3*01:01 = DRB3*01:01 (Homo sapiens, UniProt P01903+P79483); type: binding

Row | Compound | IC50 (DQA1*05:01 DQB1*03:0) [µM] | also measured
1 | CC(C)C[C@H](NC(=O)[C@H](CC(N)=O)NC(=O)[C@H](CCCCN)NC(=O)[C@@H](NC(=O)[C@H](CCCNC(=N)N)NC(=O)[C@H](CO)NC(=O)[C@H](Cc1ccc(O)cc1)NC(=O)[C@@H](NC(=O)[C@H](Cc1ccc(O)cc1)NC(=O)[C@H](Cc1ccccc1)NC(=O)[C@H](CO)NC(=O)[C@@H]1CCCN1C(=O)[C@H](CCCCN)NC(=O)[C@@H](NC(=O)[C@@H](N)CC(C)C)C(C)C)C(C)C)C(C)C)C(=O)O [Env_11] | 5.77 | 
2 | CC[C@H](C)[C@H](NC(=O)[C@H](CCCNC(=N)N)NC(=O)[C@H](CC(C)C)NC(=O)[C@H](Cc1c[nH]cn1)NC(=O)CNC(=O)[C@@H](N)CCCNC(=N)N)C(=O)N[C@@H](C)C(=O)NCC(=O)N[C@@H](Cc1c[nH]cn1)C(=O)N[C@@H](Cc1c[nH]cn1)C(=O)N[C@@H](CC(C)C)C(=O)NCC(=O)N[C@@H](CCCNC(=N)N)C(=O)N[C@@H](CS)C(=O)N[C@@H](CC(=O)O)C(=O)O [Mem_30] | 15.1 | 
3 | CC[C@H](C)[C@H](NC(=O)[C@H](CCC(=O)O)NC(=O)[C@@H](N)CCCCN)C(=O)N[C@H](C(=O)N[C@H](C(=O)N[C@@H](C)C(=O)N[C@H](C(=O)N[C@@H](CO)C(=O)N[C@@H](CCCNC(=N)N)C(=O)N[C@H](C(=O)N[C@@H](CC(C)C)C(=O)N[C@@H](CO)C(=O)N[C@@H](Cc1ccc(O)cc1)C(=O)N[C@@H](Cc1ccc(O)cc1)C(=O)N[C@@H](CCCCN)C(=O)O)[C@@H](C)O)[C@@H](C)O)C(C)C)[C@@H](C)O [Mem_34] | 0.649 | 
4 | CC(C)C[C@H](NC(=O)[C@H](C)NC(=O)[C@@H](NC(=O)[C@H](Cc1ccccc1)NC(=O)[C@H](Cc1c[nH]c2ccccc12)NC(=O)[C@@H](N)CO)[C@@H](C)O)C(=O)N[C@H](C(=O)N[C@@H](CCC(N)=O)C(=O)N[C@@H](Cc1c[nH]cn1)C(=O)NCC(=O)N[C@@H](CCCCN)C(=O)N[C@@H](CCC(=O)O)C(=O)N[C@@H](CC(=O)O)C(=O)N[C@@H](CC(C)C)C(=O)N[C@@H](CCCCN)C(=O)O)[C@@H](C)O [Ncl_11] | 1.3 | 
5 | CC(C)C[C@H](NC(=O)[C@H](Cc1ccc(O)cc1)NC(=O)[C@H](Cc1ccc(O)cc1)NC(=O)[C@H](Cc1ccccc1)NC(=O)[C@H](Cc1ccc(O)cc1)NC(=O)[C@H](Cc1c[nH]c2ccccc12)NC(=O)[C@H](CCCNC(=N)N)NC(=O)[C@@H]1CCCN1)C(=O)NCC(=O)N[C@H](C(=O)NCC(=O)N1CCC[C@H]1C(=O)N[C@@H](CCC(=O)O)C(=O)N[C@@H](C)C(=O)NCC(=O)O)[C@@H](C)O [Ncl_22] | 1.28 | 
6 | CC[C@H](C)[C@H](NC(=O)CNC(=O)[C@H](CC(=O)O)NC(=O)[C@H](CCCCN)NC(=O)[C@H](CC(N)=O)NC(=O)[C@H](C)NC(=O)CNC(=O)[C@H](Cc1ccc(O)cc1)NC(=O)[C@@H]1CCCN1C(=O)[C@@H](N)CC(C)C)C(=O)N[C@H](C(=O)N[C@@H](Cc1c[nH]c2ccccc12)C(=O)N[C@H](C(=O)N[C@@H](C)C(=O)N[C@H](C(=O)O)[C@@H](C)O)C(C)C)[C@@H](C)CC [Ncl_25] | 14.6 | 
7 | CC[C@H](C)[C@H](NC(=O)CNC(=O)[C@H](CC(=O)O)NC(=O)[C@H](CCCCN)NC(=O)[C@@H](N)CC(N)=O)C(=O)N[C@H](C(=O)N[C@@H](Cc1c[nH]c2ccccc12)C(=O)N[C@H](C(=O)N[C@@H](C)C(=O)N[C@H](C(=O)N[C@@H](CCC(=O)O)C(=O)NCC(=O)N[C@@H](C)C(=O)N[C@@H](CC(C)C)C(=O)N[C@@H](CC(N)=O)C(=O)O)[C@@H](C)O)C(C)C)[C@@H](C)CC [Ncl_26] | 4.03 | 
8 | CC(C)C[C@H](NC(=O)[C@H](CCC(N)=O)NC(=O)[C@H](CC(N)=O)NC(=O)[C@H](CC(C)C)NC(=O)[C@H](CCCNC(=N)N)NC(=O)[C@H](CC(=O)O)NC(=O)[C@H](CC(C)C)NC(=O)[C@H](CC(C)C)NC(=O)[C@H](CC(C)C)NC(=O)[C@H](CC(C)C)NC(=O)[C@H](C)NC(=O)[C@H](CC(C)C)NC(=O)[C@H](C)NC(=O)[C@H](C)NC(=O)[C@@H](N)CC(=O)O)C(=O)O [Ncl_44] | 22.5 | 
9 | CSCC[C@H](NC(=O)[C@H](CCCCN)NC(=O)[C@H](CO)NC(=O)[C@H](CCC(=O)O)NC(=O)[C@H](CC(C)C)NC(=O)[C@H](CCC(N)=O)NC(=O)[C@H](CC(N)=O)NC(=O)[C@H](CC(C)C)NC(=O)[C@H](CCCNC(=N)N)NC(=O)[C@H](CC(=O)O)NC(=O)[C@H](CC(C)C)NC(=O)[C@H](CC(C)C)NC(=O)[C@H](CC(C)C)NC(=O)[C@@H](N)CC(C)C)C(=O)N[C@@H](CO)C(=O)O [Ncl_45] | > 40 | 
10 | CC(C)[C@H](NC(=O)[C@H](CC(N)=O)NC(=O)[C@H](Cc1ccc(O)cc1)NC(=O)[C@H](C)NC(=O)[C@@H](N)CCCCN)C(=O)N[C@H](C(=O)N[C@@H](CCC(N)=O)C(=O)N[C@@H](C)C(=O)N[C@@H](Cc1ccccc1)C(=O)NCC(=O)N[C@@H](CCCNC(=N)N)C(=O)N[C@@H](CCCNC(=N)N)C(=O)NCC(=O)N1CCC[C@H]1C(=O)N[C@@H](CCC(=O)O)C(=O)O)[C@@H](C)O [Ncl_54] | 0.794 | IC50 (DRB1*15:01): 0.988 µM; IC50 (DPA1*01:03 DPB1*04:01): 6.06 µM; IC50 (DRB5*01:01): 0.00075 µM; IC50 (DRB3*01:01): 7.84 µM
11 | CC[C@H](C)[C@H](NC(=O)[C@H](Cc1c[nH]cn1)NC(=O)[C@H](CCCCN)NC(=O)[C@H](CC(N)=O)NC(=O)[C@H](CC(C)C)NC(=O)[C@H](CC(C)C)NC(=O)[C@@H](NC(=O)[C@@H](NC(=O)[C@H](CCC(N)=O)NC(=O)[C@H](CC(=O)O)NC(=O)[C@H](CCCCN)NC(=O)[C@@H](N)Cc1ccccc1)C(C)C)[C@@H](C)CC)C(=O)N[C@@H](CC(=O)O)C(=O)N[C@@H](C)C(=O)N[C@@H](Cc1ccc(O)cc1)C(=O)O [Ncl_70] | 33.7 | 
12 | CC[C@H](C)[C@H](NC(=O)[C@H](CCC(N)=O)NC(=O)[C@H](CC(=O)O)NC(=O)[C@@H](N)CC(=O)O)C(=O)NCC(=O)N[C@@H](Cc1ccc(O)cc1)C(=O)N[C@@H](Cc1ccc(O)cc1)C(=O)N[C@@H](CCCNC(=N)N)C(=O)N[C@@H](CCCNC(=N)N)C(=O)N[C@@H](C)C(=O)N[C@H](C(=O)N[C@@H](CCCNC(=N)N)C(=O)N[C@@H](CCCNC(=N)N)C(=O)N[C@H](C(=O)N[C@@H](CCCNC(=N)N)C(=O)O)[C@@H](C)CC)[C@@H](C)O [Ncl_P17] | 5.07 | 
13 | CC[C@H](C)[C@H](NC(=O)[C@H](CCCNC(=N)N)NC(=O)[C@H](CCCNC(=N)N)NC(=O)[C@@H](NC(=O)[C@H](C)NC(=O)[C@H](CCCNC(=N)N)NC(=O)[C@H](CCCNC(=N)N)NC(=O)[C@H](Cc1ccc(O)cc1)NC(=O)[C@@H](N)Cc1ccc(O)cc1)[C@@H](C)O)C(=O)N[C@@H](CCCNC(=N)N)C(=O)NCC(=O)NCC(=O)N[C@@H](CC(=O)O)C(=O)NCC(=O)N[C@@H](CCCCN)C(=O)O [Ncl_P18] | 6.72 | 
